This note sets out measurements from patent US20030118510A1 (priority 2001, published 2003).

For series [1] the following is noted: i.t. Here is the method: The rats were lightly anesthetized using inhaled 3.0-5.0% Isoflurane (Abbott Laboratories) mixed with oxygen for approximately 5 minutes in a plexiglass anesthesia chamber. Administration was accomplished by insertion of a gavage needle (Popper & Sons Inc.; 18×3″ W2-¼ mm ball, New Hyde Park, N.Y. 11040) fitted into a 1 mL syringe into the mouth of the rat down the trachea to just above the main carina. When inserting the gavage needle into the trachea, proper insertion was detected by feeling for the roughness of the cartilage rings under the skin of the throat using the ball of the gavage needle. Doses were administered into the lungs utilizing this method, and followed by removal of the gavage needle.
Fourteen (N=7/Group) fasted male rats (Hilltop Lab Animals, Scottsdale, Pa. (300-350 g)) with indwelling jugular vein catheters (JVC) were used for this study.

The conditions of series [2]: rats, 20, 30, 40 μg/animal.

For “N^αB1-Methoxypoly(ethylene glycol)5K- propionamido-insulin [5K PEG insulin]”, the “duration of action compared with non-pegylated insulin (profiles in FIG. 4)” value in series [1] (150 μg/animal vs non-pegylated insulin 40 μg/animal) is reported as “longer acting than non-pegylated insulin”. The “time at which blood levels of insulin were observed following intratracheal administration” value in series [1] (150 μg/animal, male rats) was at most 1 h. Besides, in series [2], the “mean serum insulin concentrations following i.v. administration” value is listed as “dose dependent”.
